# scFv variants of Ab-95 (light chain) against a SARS-CoV-2 spike peptide

All variants were tested on one target, the spike HR2 peptide PDVDLGDISGINAS (SARS-CoV-2).

Each scFv is VH, the linker GGGGSGGGGSGGGGS, VL, as in the parent Ab-95, and differs from it in the CDRs of the light chain only.
VH: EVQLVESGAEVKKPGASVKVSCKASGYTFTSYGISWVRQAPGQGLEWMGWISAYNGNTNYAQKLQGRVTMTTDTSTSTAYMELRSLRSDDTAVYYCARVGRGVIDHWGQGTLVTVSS
VL: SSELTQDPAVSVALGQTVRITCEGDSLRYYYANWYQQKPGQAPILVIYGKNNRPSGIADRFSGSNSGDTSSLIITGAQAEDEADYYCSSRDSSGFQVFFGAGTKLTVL

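In library AAYL52, one, two or three CDR residues were substituted; doubles and triples were drawn at random. In AlphaSeq, yeast of one mating type display the scFv and yeast of the other type display the target. Binding brings cells together so that they mate, and sequencing counts the barcode pairs among the diploids. A regression on co-assayed BCL2-family reference pairs converts the normalised counts of each replicate to an apparent Kd. The assay was run in three technical replicates.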

Changes read parent residue, position, new residue, counted from the first residue of the VL shown.
Scale: log10 of Kd in nM, estimated from mating counts; low values are strong binders.
Where no diploid with the target was found in that replicate, the entry reads "nd": below detection, most likely a poor binder, though not proof of it.

0.86, 0.87, 0.43 (controls 1 of 9) for E23K/Y31D/S55C.
5.92, nd, 4.40 (controls 3 of 9) for G24K/N33C/S55F.
1.68, 1.93, 1.07 (controls 1 of 9) for Y30E/A32V/K50H.
3.50, nd, nd (controls 2 of 9) for L27Y/N52S.
1.20, 1.21, 0.70 (controls 6 of 9) for Y31E/Q96K.
nd, 5.15, nd (controls 2 of 9) for N52P/R53N.
3.53, 3.42, 4.13 (controls 3 of 9) for D25G/S89W/S92P.
3.34, 3.32, 4.04 (controls 5 of 9) for L27F/Y29N/V97Y.
3.99, 3.48, 4.06 (controls 1 of 9) for N51S/S55K/S92W.
nd, nd, 3.79 (controls 2 of 9) for P54R/S93L/F95E.
2.97, 3.32, 3.60 (controls 3 of 9) for Y29K/K50Y/F98D.
2.03, 2.07, 2.66 (controls 2 of 9) for S26G/S89E/G94H.
3.58, nd, nd (controls 0 of 9) for N51R/G94N/F95Q.
3.66, nd, nd (controls 5 of 9) for Y31V/N51P/R53Y.
nd, 5.68, nd (controls 0 of 9) for R28I/R90Y/V97F.
4.08, 3.76, 2.97 (controls 2 of 9) for K50N/N51H/N52Y.
1.88, 1.93, 1.44 (controls 8 of 9) for D25E/Y29D/Q96M.
nd, nd, nd (controls 4 of 9) for D91C/V97I.
nd, 4.66, nd (controls 3 of 9) for Y29I/Y31V/S88E.
nd, nd, 3.79 (controls 5 of 9) for N51C/S55M/S93Q.
2.73, 2.83, 2.23 (controls 2 of 9) for S92H/S93F.
3.06, nd, 4.13 (controls 0 of 9) for R53I/R90D/D91W.
1.77, 3.87, 1.91 (controls 1 of 9) for R28M/Y29K/D91P.
nd, nd, nd (controls 2 of 9) for V97A/F98P.
4.11, nd, 3.56 (controls 1 of 9) for Y29R/Y31W/P54R.
2.01, 1.70, 1.58 (controls 6 of 9) for E23R/Y31V/F95I.
4.16, 3.47, 4.10 (controls 1 of 9) for Y31L/R53S/S89P.
3.07, 2.54, 2.24 (controls 3 of 9) for A32V/P54G/G94H.
2.78, 2.57, 2.17 (controls 5 of 9) for D25L/S89G.
2.79, 2.52, 3.68 (controls 3 of 9) for Y29Q/S89T/R90Q.
nd, nd, nd (controls 1 of 9) for N33E/N51G/S88Q.
1.55, 1.94, 1.15 (controls 3 of 9) for E23N/Y30K/D91A.
nd, nd, nd (controls 1 of 9) for L27G/N51L/S93W.
nd, nd, 4.33 (controls 3 of 9) for Y29F/A32C/V97M.
3.85, 3.73, nd (controls 2 of 9) for N52R/Q96V/F98S.
3.14, 2.76, 2.63 (controls 3 of 9) for K50I/S55I/F95M.
3.29, nd, 3.51 (controls 2 of 9) for G49W/G94S/F98K.
3.46, 2.12, 2.92 (controls 1 of 9) for E23T/R53K/R90E.

Excerpt, the first 4 entries:

changes	log10 Kd, replicates	empty controls
E23K/Y31D/S55C	0.86, 0.87, 0.43	1/9
G24K/N33C/S55F	5.92, nd, 4.40	3/9
Y30E/A32V/K50H	1.68, 1.93, 1.07	1/9
L27Y/N52S	3.50, nd, nd	2/9

Nonspecific signal, from three strains lacking the peptide, appeared in 28% of pairings of library AAYL52, centred on 3.91 (5% of these signals below 2.90); values are not corrected for it. Also given: how often the same scFv was detected with the empty control strains.
For reference, the parent read 2.31 as the reference entry and 2.25 as a member of this library.

Source: Engelhart et al. 2022 (doi:10.1038/s41597-022-01779-4), MIT Lincoln Laboratory and A-Alpha Bio; data file from the FLAb repository.